Chains of the proteins cited; added tags and fusions are not shown.
UniProt Q9JIF0, whole entry: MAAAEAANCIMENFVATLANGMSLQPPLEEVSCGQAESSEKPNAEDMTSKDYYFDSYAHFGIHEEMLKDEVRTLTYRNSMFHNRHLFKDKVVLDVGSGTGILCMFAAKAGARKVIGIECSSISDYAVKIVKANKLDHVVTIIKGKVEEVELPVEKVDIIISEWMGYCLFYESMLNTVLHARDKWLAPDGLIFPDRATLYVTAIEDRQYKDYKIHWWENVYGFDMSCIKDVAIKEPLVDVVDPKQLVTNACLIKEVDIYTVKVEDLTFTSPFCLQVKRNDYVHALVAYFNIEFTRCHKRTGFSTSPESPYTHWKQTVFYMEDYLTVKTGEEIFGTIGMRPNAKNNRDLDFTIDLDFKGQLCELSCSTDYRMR
UniProt Q99873, whole entry: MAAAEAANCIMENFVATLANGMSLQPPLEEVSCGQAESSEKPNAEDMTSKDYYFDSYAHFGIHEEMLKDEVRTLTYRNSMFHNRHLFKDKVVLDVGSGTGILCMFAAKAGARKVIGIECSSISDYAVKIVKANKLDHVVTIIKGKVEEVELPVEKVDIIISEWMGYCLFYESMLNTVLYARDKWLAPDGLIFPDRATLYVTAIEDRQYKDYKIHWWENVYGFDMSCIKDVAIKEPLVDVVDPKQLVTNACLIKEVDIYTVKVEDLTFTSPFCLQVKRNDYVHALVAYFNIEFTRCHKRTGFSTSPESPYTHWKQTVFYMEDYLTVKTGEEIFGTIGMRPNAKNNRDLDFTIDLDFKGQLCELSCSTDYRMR

According to article PMC11192564 (Cell metabolism, 2023):

What was measured:
Prmt1 [1] = target: Prmt1 (Mus musculus, UniProt Q9JIF0); assay: biochemical
PRMT1 [2] = target: PRMT1 (Homo sapiens, UniProt Q99873); assay: biochemical

C[S+](CC[C@H](N)C(=O)[O-])C[C@H]1O[C@@H](n2cnc3c(N)ncnc32)[C@H](O)[C@@H]1O (some centres unmarked) [SAM]
Kd (Prmt1 [1]): ~36 µM
Kd (PRMT1 [2]): ~26 µM
